## Apparent affinities of Ab-91 variants for a coronavirus HR2 peptide

Binding partner: SARS-CoV-2 spike HR2 peptide, sequence PDVDLGDISGINAS.

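Phage display of a naive human antibody library on the peptide gave the parent. The library (AAYL51) carries one to three amino acid substitutions per variant, with no insertions or deletions. The scFvs were displayed on barcoded MATa yeast, the peptide on MATalpha yeast. Mating (16 h, 30 °C) was followed by selection of diploids and sequencing of their barcodes. Scores were corrected for input abundance and mapped to Kd with protein pairs of known affinity run in the same pool. Mating was done three times.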

Parent scFv Ab-91: VL joined to VH by three GGGGS repeats. Changes lie in the heavy chain CDRs alone.
VL: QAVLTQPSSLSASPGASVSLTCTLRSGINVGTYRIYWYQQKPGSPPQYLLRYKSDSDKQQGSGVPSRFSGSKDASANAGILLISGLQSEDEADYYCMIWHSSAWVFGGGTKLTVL
VH: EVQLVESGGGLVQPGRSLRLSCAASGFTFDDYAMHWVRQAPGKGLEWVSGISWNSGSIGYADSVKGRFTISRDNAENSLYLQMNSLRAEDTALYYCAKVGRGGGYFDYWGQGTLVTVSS

Each variant is given by its three heavy chain CDRs, as the data file delimits them; those of the parent are GFTFDDYAMH, GISWNSGSIGYADSVK, VGRGGGYFDY.
Numbers give log10(Kd / nM), so 0 is 1 nM and 3 is 1 µM. Smaller is tighter.
An entry "ND" has no value in the source: the pair was not observed among the diploids in that replicate. This suggests poor binding but is not conclusive.
Background: pairings of library AAYL51 with three empty control strains gave a value in 21% of cases (median 4.54, 5th percentile 3.26). Values in that range, when seen in few replicates, are hard to tell from nonspecific mating. The control count says in how many pairings with the empty strains this scFv gave a signal, with their mean in brackets.

CDR-H1	CDR-H2	CDR-H3	replicates, log10 nM	signal with controls
GFTFDDYAMH	GISWNSGSIGEADSVK	VGRGGDYFDG	ND ND ND	1/9 (4.31)
GFTDDDYAMH	GISWNSGSIGYADSVK	QGRGGGYFDD	5.95 ND ND	0/9
GFTFDDYANL	GISWTSGSIGYADSVK	VGRGGGYFDY	5.51 ND ND	2/9 (4.43)
GFTLDDYAVH	GISWNSGSIGYSDSVK	VGRGGGYFDY	5.94 4.34 4.89	2/9 (4.05)
GFCFDDYAMH	GISWNSGSIGYAYSVK	VGRGGGYEDY	ND ND 3.81	0/9
GFTFDDYAMP	GISWNSGSIGYADSVK	VGRGHGYFDY	ND ND ND	1/9 (5.03)
GFTFDDYAMH	GISWNSGSIGRGDSPK	VGRGGGYFDY	4.60 ND ND	0/9
GFTFDDYAMH	GINWNSGSIGYADSVK	VGRLGGYEDY	ND ND ND	0/9
GFTFDDYAMH	GISWNSGSIGYADSVF	WGRGEGYFDY	3.61 ND ND	0/9
GFTFDDYAMH	GISWMSGSTGYADSVK	VGRGGGCFDY	2.53 2.09 3.72	0/9
GFTFDDYAMH	GISWNSGSIGYCDGVK	VGRGGGYNDY	3.23 2.96 3.80	5/9 (4.87)
GFTPDDYAMH	GISWMSGSSGYADSVK	VGRGGGYFDY	ND ND ND	2/9 (4.80)
GFTFDDYAMH	GISWGSGSIGYADSVK	VGPGGGYFDE	2.50 2.51 2.64	5/9 (4.65)
GFTFDDYAMH	GITWNSGSIGYADGVK	VGRGGGYFDK	3.68 4.10 2.92	9/9 (5.56)
GFTFDDYAMH	KISWNSGSIGYADYVK	VGRGGGYFDN	ND ND ND	1/9 (4.08)
GFTFDDYGMH	GISWNSGSIGYADSVK	VGRGGGHYDY	4.99 5.47 5.40	6/9 (5.27)
GFTFDDYIMH	GGSWNSGSIGYALSVK	VGRGGGYFDY	ND ND ND	0/9
GFTFDDYFMH	GISWNSGSIGYADSVK	VGRGGQYFDQ	ND ND ND	0/9
GFTFDRYAMH	GHSWNSGSIGYADSVK	VGRGGGYKDY	ND 3.26 ND	1/9 (3.76)
GETFDDYAMH	GISWNSGSIGYADSVK	VGRGGPKFDY	ND ND ND	0/9
GFTFDDGAMH	GISWNSGSIGYADSVK	VGRGGHYFDY	4.45 ND ND	5/9 (4.96)
GFTFDCYAMH	GISWNSGSIGYADYVK	VGRGGYYFDY	4.33 5.86 5.12	7/9 (4.79)
GFTFDDHKMH	GISWNSGSIGYQDSVK	VGRGGGYFDY	ND ND ND	0/9
GFTFDDYAMH	GWSWNSGSIGYADSVK	VGRGGGYFDY	ND ND ND	0/9
GFTFDDYAQR	GISWNSGSIGYADSVL	VGRGGGYFDY	ND 3.29 ND	1/9 (3.68)
GFTFDDRAMC	GISWNSGSKGYADSVK	VGRGGGYFDY	ND ND ND	2/9 (4.43)
GFTFDDYAMH	GISWNRGSIGYADSAK	VGRGGGYFDH	4.85 4.87 ND	0/9
GFTFDDYAMH	GISWNSGSIGYRDSEK	CGRGGGYFDY	5.11 5.52 ND	5/9 (5.50)
IFMFDDYAMH	GISWNSGSQGYADSVK	VGRGGGYFDY	ND ND ND	0/9
GFTFDDYAMH	AISWNSGSIGYADSPK	VGRGGGYNDY	ND ND 4.54	3/9 (4.13)
GFTDDDYAMH	GISWNSGGIGYADSVK	VGRGGGYFCY	4.18 5.45 ND	5/9 (4.99)
GFSFDDYAMH	GISWNSGSIGVADSVK	VGHGGGYFDY	2.86 3.56 2.83	3/9 (4.20)
GFTFDDYAMH	GISPNSGSIGYPDSRK	VGRGGGYFDY	ND ND 3.55	7/9 (4.00)
GFTFCDMAMH	GISWNSGSIGYADSVK	VTRGGGYFDY	4.44 ND ND	1/9 (3.27)
GFTFDDEAMH	GISWNSGSIGYNDSVS	VGRGGGYFDY	5.00 ND ND	3/9 (4.44)
GFTFDDYAMH	GISWNKGSMGYADCVK	VGRGGGYFDY	3.78 3.17 ND	0/9
GFTFDDSAMH	GISWNSGSIGYADSVK	VGRGGGYFSY	ND 5.17 ND	4/9 (5.23)
GFTFDDCAMH	GISQNSGSIGYKDSVK	VGRGGGYFDY	3.65 ND ND	1/9 (3.61)
GFTFDDYAMH	GASWNSGSIGYADSVK	NPRGGGYFDY	ND ND ND	1/9 (3.88)
SFSFDDYAMH	GISWNSGSIGYADSNK	VGRGGGYFDY	4.50 4.97 3.81	5/9 (4.46)
GFTFDDYAMH	GWSGNSGSIGYADSVK	VGAGGGYFDY	ND ND ND	0/9
GFTFDVYAMH	GISWNSGSIGYNDSVK	VGRGDGYFDY	ND ND ND	0/9
GFTFDDYAMH	GISWNSGSIGYADSIK	VGRGGGYFYP	1.86 1.82 1.45	3/9 (4.90)
GFTFDDYAMH	GISWQYGSIGYADSVK	VGRGGGYFDY	2.53 3.58 ND	1/9 (3.67)
GSTFDNYAMH	GISWNSGPIGYADSVK	VGRGGGYFDY	ND 4.38 ND	2/9 (4.06)
FFTFDDYAMH	GISWNSGSIGYADSMK	VGRTGGYFDY	ND ND ND	0/9
GFTFDDYQMH	GISWESGSIHYADSVK	VGRGGGYFDY	4.61 4.90 5.28	7/9 (5.06)
GFTFDDYAMH	GISWNSGSIGYATPVS	VGRGGGYFDY	ND ND ND	0/9
GATFDDYAMA	GISWNSGSIWYADSVK	VGRGGGYFDY	5.13 ND 4.45	6/9 (4.57)
GFTFDDYAMH	GISWNSQSIGYADSVK	VGRGWGYEDY	1.55 1.45 1.17	0/9
QFTFDDYAMH	IISWNSGSIGYADSVK	VGRGGFYFDY	ND ND ND	0/9

Data: MIT Lincoln Laboratory AlphaSeq set, Engelhart et al. 2022, doi:10.1038/s41597-022-01779-4, as distributed in FLAb.